Source: ChEMBL document CHEMBL1129480, “Design and synthesis of 1-aminocycloalkane-1-carboxylic acid-substituted deltorphin analogues: unique delta and mu opioid activity in modified peptides” (J Med Chem, 1996)

Amino acid sequences for entries named in this document (tags omitted).
UniProt P32300, whole entry: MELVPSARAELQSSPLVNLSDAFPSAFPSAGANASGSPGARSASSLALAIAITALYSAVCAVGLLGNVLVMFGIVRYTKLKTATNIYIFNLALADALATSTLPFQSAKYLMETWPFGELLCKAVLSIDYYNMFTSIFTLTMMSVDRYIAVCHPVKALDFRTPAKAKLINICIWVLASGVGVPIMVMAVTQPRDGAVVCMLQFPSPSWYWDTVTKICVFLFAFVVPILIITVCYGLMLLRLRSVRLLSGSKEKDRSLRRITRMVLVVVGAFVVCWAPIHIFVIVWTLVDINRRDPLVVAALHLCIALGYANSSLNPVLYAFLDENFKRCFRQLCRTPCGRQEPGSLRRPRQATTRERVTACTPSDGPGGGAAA

Molecular target: Delta-type opioid receptor (Mus musculus, UniProt P32300)
Experiment: Inhibitory activity against Opioid receptor delta 1 of mouse vas deferens (MVD)
Format: tissue-based

CC(C)[C@H](NC(=O)[C@H](CC(=O)O)NC(=O)[C@H](Cc1ccccc1)NC(=O)[C@@H](C)NC(=O)[C@@H](N)Cc1ccc(O)cc1)C(=O)N[C@H](C(=O)NCC(N)=O)C(C)C [DELTORPHIN C]
IC50: 0.46 nM
